Experiments:
[1] = N-terminal Tyr replaced with 2-(3-chloro-4-fluorophenoxy)acetic acid; cited from earlier work
[2] = target: recombinant 6xHis-EphA2-LBD (EphA2 ligand binding domain) (UniProt P29317)
EphA2 receptor = experiment: EphA2 degradation, Western blot of HCT116 cell lysates; type: cell-based; details: HCT116 cells, 10 μM agent, 2.5 h
EphA2-LBD = target: T1, EphA2-LBD (Homo sapiens, UniProt P29317); experiment: 2D [15N,1H]-sofast HSQC NMR with 15N-labeled EphA2-LBD; type: binding; details: EphA2-LBD 20 μM, stoichiometric amount of agent
T1 construct: recombinant 6xHis-EphA2-LBD and fluorescent europium-conjugated anti-6xHis antibody were added to each well
From the text: As mentioned above, our attempts to crystallize dimeric agents in complex with EphA2-LBD have thus far failed. However, we could express and purify ^15N-labeled EphA2-LBD and have conducted comparative NMR experiments with monomers and dimers (Figure 2). […] While the line broadening is widespread, some resonances seem more affected and presented differences in chemical shifts. Unfortunately, the resonance assignments for EphA2-LBD are not available, but we speculate that these localized changes may reflect the formation, perhaps transiently, of the dimer interface.
Figure 2 2D NMR [^15N,^1H] spectra with ^15N-labeled EphA2-LBD.
Molecular modeling studies were conducted using Sybyl-X 1.2 (Certara, St. Louis, MO, USA) and the X-ray structures of 135E2 in complex with EphA2-LBD (PDB ID 6B9L) and of ephrinA1 in complex with the ectodomain of EphA2 (PDB ID 3MX0). […] Subsequently, a C-terminal Gly-Lys linker was modeled in an extended conformation to 135H11, and covalently linked to a second 135H11 from the other unit of the biological unit dimer. The complex was further energy minimized (partial charges were assigned using the Gasteiger-Huckel method). […] HSQCs were measured on a 700 MHz Avance Bruker instrument equipped with a cryo-probe and automated sample changer. […]

Chains of the proteins cited; added tags and fusions are not shown. Residues count along the entry.
UniProt P29317, 27-200: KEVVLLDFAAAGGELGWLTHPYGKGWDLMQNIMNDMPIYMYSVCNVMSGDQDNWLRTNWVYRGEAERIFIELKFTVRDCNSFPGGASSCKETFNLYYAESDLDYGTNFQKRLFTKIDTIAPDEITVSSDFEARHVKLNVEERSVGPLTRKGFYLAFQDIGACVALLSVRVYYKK
UniProt P29317, 28-206 limits assumed: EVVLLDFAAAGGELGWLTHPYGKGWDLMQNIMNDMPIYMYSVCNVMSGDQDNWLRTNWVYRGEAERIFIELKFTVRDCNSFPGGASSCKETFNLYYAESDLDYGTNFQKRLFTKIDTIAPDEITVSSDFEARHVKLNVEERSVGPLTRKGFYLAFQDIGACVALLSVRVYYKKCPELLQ

CC(C)[C@H](NC(=O)[C@H](CO)NC(=O)[C@H](CC(=O)O)NC(=O)[C@@H]1CCCN1C(=O)[C@H](Cc1ccc(O)cc1)NC(=O)[C@H](C)NC(=O)[C@H](CO)NC(=O)COc1ccc(F)c(Cl)c1)C(=O)N1CCC[C@H]1C(=O)N[C@@H](Cc1ccccc1)C(=O)N[C@@H](CCCNC(=N)N)C(=O)N1CCC[C@H]1C(N)=O [135E2]
plasma stability [1]: dramatically improve plasma stability

135D1 (dimer of 135B12) (peptide)
IC50 [2]: 0.4 µM

CC(C)[C@H](NC(=O)[C@H](CO)NC(=O)[C@H](CC(=O)O)NC(=O)[C@@H]1CCCN1C(=O)[C@H](Cc1ccc(O)cc1)NC(=O)[C@H](C)NC(=O)[C@H](CO)NC(=O)[C@@H](N)Cc1ccc(O)cc1)C(=O)N1CCC[C@H]1C(=O)N[C@@H](Cc1ccccc1)C(=O)N[C@@H](CCCNC(=N)N)C(=O)N1CCC[C@H]1C(=O)NCC(=O)NCCCC[C@H](NC(=O)CNC(=O)[C@@H]1CCCN1C(=O)[C@H](CCCNC(=N)N)NC(=O)[C@H](Cc1ccccc1)NC(=O)[C@@H]1CCCN1C(=O)[C@@H](NC(=O)[C@H](CO)NC(=O)[C@H](CC(=O)O)NC(=O)[C@@H]1CCCN1C(=O)[C@H](Cc1ccc(O)cc1)NC(=O)[C@H](C)NC(=O)[C@H](CO)NC(=O)[C@@H](N)Cc1ccc(O)cc1)C(C)C)C(N)=O [135C11]
total EphA2 level (anti-EphA2 blot) (EphA2 receptor): partial decrease of the receptor

CC(C)[C@H](NC(=O)[C@H](CO)NC(=O)[C@H](CC(=O)O)NC(=O)[C@@H]1CCCN1C(=O)[C@H](Cc1ccc(O)cc1)NC(=O)[C@H](C)NC(=O)[C@H](CO)NC(=O)COc1ccc(F)c(Cl)c1)C(=O)N1C[C@H](O)C[C@H]1C(=O)N[C@@H](Cc1ccc(Cl)cc1)C(=O)N[C@@H](CCCNC(=N)N)C(=O)N1CCC[C@H]1C(N)=O [135G3]
changes in amide chemical shifts in 2D [15N,1H]-sofast HSQC (EphA2-LBD): Large changes in chemical shifts

CC(C)[C@H](NC(=O)[C@H](CO)NC(=O)[C@H](CC(=O)O)NC(=O)[C@@H]1CCCN1C(=O)[C@H](Cc1ccc(O)cc1)NC(=O)[C@H](C)NC(=O)[C@H](CO)NC(=O)[C@@H](N)Cc1ccc(O)cc1)C(=O)N1CCC[C@H]1C(=O)N[C@@H](Cc1ccccc1)C(=O)N[C@@H](CCCNC(=N)N)C(=O)N1CCC[C@H]1C(=O)NCCC(=O)NCCCC[C@H](NC(=O)CCNC(=O)[C@@H]1CCCN1C(=O)[C@H](CCCNC(=N)N)NC(=O)[C@H](Cc1ccccc1)NC(=O)[C@@H]1CCCN1C(=O)[C@@H](NC(=O)[C@H](CO)NC(=O)[C@H](CC(=O)O)NC(=O)[C@@H]1CCCN1C(=O)[C@H](Cc1ccc(O)cc1)NC(=O)[C@H](C)NC(=O)[C@H](CO)NC(=O)[C@@H](N)Cc1ccc(O)cc1)C(C)C)C(N)=O [135C12]
total EphA2 level (anti-EphA2 blot) (EphA2 receptor): partial decrease of the receptor

CC(C)[C@H](NC(=O)[C@H](CO)NC(=O)[C@H](CC(=O)O)NC(=O)[C@@H]1CCCN1C(=O)[C@H](Cc1ccc(O)cc1)NC(=O)[C@H](C)NC(=O)[C@H](CO)NC(=O)[C@@H](N)Cc1ccc(O)cc1)C(=O)N1CCC[C@H]1C(=O)N[C@@H](Cc1ccccc1)C(=O)N[C@@H](CCCNC(=N)N)C(=O)N1CCC[C@H]1C(=O)NCCCC(=O)NCCCC[C@H](NC(=O)CCCNC(=O)[C@@H]1CCCN1C(=O)[C@H](CCCNC(=N)N)NC(=O)[C@H](Cc1ccccc1)NC(=O)[C@@H]1CCCN1C(=O)[C@@H](NC(=O)[C@H](CO)NC(=O)[C@H](CC(=O)O)NC(=O)[C@@H]1CCCN1C(=O)[C@H](Cc1ccc(O)cc1)NC(=O)[C@H](C)NC(=O)[C@H](CO)NC(=O)[C@@H](N)Cc1ccc(O)cc1)C(C)C)C(N)=O [135D1]
total EphA2 level (anti-EphA2 blot) (EphA2 receptor): partial decrease of the receptor

135C12 (dimer of 135B12) (peptide)
IC50 [2]: 0.3 µM

Source: PMC7281375, “Therapeutic Targeting of Pancreatic Cancer via EphA2 Dimeric Agonistic Agents” (Pharmaceuticals, 2020)
